Source: IntAct's records for PubMed 21320496

B1: Tyrosine-protein kinase ABL1 (Mus musculus), P00520-4 (parent)
chain: MGQQPGKVLGDQRRPSLPALHFIKGAGKRDSSRHGGPHCNVFVEHEALQRPVASDFEPQGLSEAARWNSKENLLAGPSENDPNLFVALYDFVASGDNTLSITKGEKLRVLGYNHNGEWCEAQTKNGQGWVPSNYITPVNSLEKHSWYHGPVSRNAAEYLLSSGINGSFLVRESESSPGQRSISLRYEGRVYHYRINTASDGKLYVSSESRFNTLAELVHHHSTVADGLITTLHYPAPKRNKPTIYGVSPNYDKWEMERTDITMKHKLGGGQYGEVYEGVWKKYSLTVAVKTLKEDTMEVEEFLKEAAVMKEIKHPNLVQLLGVCTREPPFYIITEFMTYGNLLDYLRECNRQEVSAVVLLYMATQISSAMEYLEKKNFIHRDLAARNCLVGENHLVKVADFGLSRLMTGDTYTAHAGAKFPIKWTAPESLAYNKFSIKSDVWAFGVLLWEIATYGMSPYPGIDLSQVYELLEKDYRMERPEGCPEKVYELMRACWQWNPSDRPSFAEIHQAFETMFQESSISDEVEKELGKRGTRGGAGSMLQAPELPTKTRTCRRAAEQKDAPDTPELLHTKGLGESDALDSEPAVSPLLPRKERGPPDGSLNEDERLLPRDRKTNLFSALIKKKKKMAPTPPKRSSSFREMDGQPDRRGASEDDSRELCNGPPALTSDAAEPTKSPKASNGAGVPNGAFREPGNSGFRSPHMWKKSSTLTGSRLAAAEEESGMSSSKRFLRSCSASCMPHGARDTEWRSVTLPRDLPSAGKQFDSSTFGGHKSEKPALPRKRTSESRSEQVAKSTAMPPPRLVKKNEEAAEEGFKDTESSPGSSPPSLTPKLLRRQVTASPSSGLSHKEEATKGSASGMGTPATAEPAPPSNKVGLSKASSEEMRVRRHKHSSESPGRDKGRLAKLKPAPPPPPACTGKAGKPAQSPSQEAGEAGGPTKTKCTSLAMDAVNTDPTKAGPPGEGLRKPVPPSVPKPQSTAKPPGTPTSPVSTPSTAPAPSPLAGDQQPSSAAFIPLISTRVSLRKTRQPPERIASGTITKGVVLDSTEALCLAISRNSEQMASHSAVLEAGKNLYTFCVSYVDSIQQMRNKFAFREAINKLESNLRELQICPATASSGPAATQDFSKLLSSVKEISDIVRR

Variants of: B1
Settings: with q8izp0-4 ABI1, Q8IZP0-4

Row | Variant | effect of a mutation on the interaction
1 | P548A | decreasing interaction
2 | P592A | decreasing interaction

Next, values leading:

Row | effect of a mutation on the interaction | Variant
3 | decreasing interaction | P634A
4 | decreasing interaction | P781A

Variants of: B1
Settings: with q8izp0-4 ABI1, Q8IZP0-4
Remark: another data set of the same source

Row | effect of a mutation on the interaction | Variant
5 | disrupting interaction | K290M
